The numbers were not newly measured in patent publication US11766422B2, “Galloylated procyanidins for treating endovascular dysfunction and increasing blood flow” (UNIVERSITY OF SOUTH FLORIDA, priority 2018, dated 2023), which cites them from elsewhere.

The series has as its system S-G cells (immortalized gum epithelial cells). The following applies: cited from earlier work.

On to catechin, for which the “Effect: Cytotoxicity towards S-G cells (immortalized gum epithelial cells)” value is “↑”.
